Measurements taken from patent US20190015518A1, “DRUG DELIVERY COMPOSITIONS AND METHODS” (priority 2016, published 2019).

Key:
[1] = Pharmacokinetics in three tumor-bearing dogs (three-compartmental model); type: in vivo; details: Dog 3 (6.5 kg), 10 mg/m2
Procedure: An open label, multiple dose/dosage phase I/II trial of 75HA-Lys-Pt was conducted at the University of Missouri Veterinary Medical Teaching Hospital (MU-VMTH). The clinical trial protocol was approved by the University of Missouri ACUC. Dogs of any age, sex, or breed presented to the MU-VMTH oncology service with the a histological diagnosis of anal sac carcinoma, oral squamous cell carcinoma, oral melanoma, nasal carcinoma, or digital squamous cell carcinoma with a performance score of 0 or 1 (0: normal activity; 1: restricted activity; 2: compromised activity; 3: disabled; 4: dead) and without comorbid conditions that would limit life expectancy to less than nine weeks were offered enrollment in the trial.
Following complete staging, client consent was obtained to enroll each dog in the study. Once enrolled in the study, longest tumor diameters of all target lesions were recorded. An indwelling jugular catheter was placed to facilitate collection of blood samples. Dogs received 10 to 30 mg/m^2 intra-tumoral injections through 1 to 3 pre-placed 22-ga spinal needles once every three weeks for up to four planned doses. […]
Serum samples of 3 dogs were diluted 20-fold in 1% HNO3, and vortexed prior to inductively coupled plasma mass spectrometry (ICP-MS) analysis. The platinum concentration of serum was determined using an Agilent 7500i ICP-MS. […]

[2] = tested on: MDA-1986 head and neck tumors; test: Anticancer efficacy, orthotopic xenograft model of human HNSCC; type: in vivo, mouse; details: 20 mg/kg s.c., three weekly injections
Procedure: The MDA-1986 cells were prepared in PBS at a concentration of 2×10^7 cells/mL. Female NU/NU mice were anesthetized under 2% isoflurane in O2, and 50 μL of cell solution was injected into the oral sub-mucosa of the mice using a 27-ga needle. All procedures in the animal study were approved by the Institutional Animal Care and Use Committee of the University of Kansas. Tumor growth was monitored twice weekly by measurement with a digital caliper, and the tumor volume was calculated as 0.52×(width)^2×(length). […] The drugs were given weekly for 3 consecutive weeks.

[3] = Pharmacokinetics in a healthy dog, oral sub-mucosa injection (SAAM II model); type: in vivo; details: 2nd dose 2.0 mg/kg
Procedure: Pharmacokinetics of HA-Lys-Pt were determined in a healthy dog by Xenometrics LLC (Stillwell, Kans.). […] After each injection, 2-mL serum samples were collected at 0, 0.25, 1, 2, 6, 24, 48, 96, and 168 hours. Cumulative urine samples were collected at 0-6, 6-24, 24-48, 48-72, 72-96, 96-120, 120-144, and 144-168 hours. The samples were frozen at −80° C. until ICP-MS analysis. Prior to analysis, serum and urine samples were diluted 250 and 500-fold using 1% HNO3, respectively. The platinum calibration curve contained 4 replicates of 6 concentrations (0, 1, 10, 20, 40, and 50 ppb). The internal standard was bismuth at 50 ppb.
The pharmacokinetics of the HA-Lys-Pt was measured using the serum and urine samples. The data was modeled using SAAM II software with a four compartmental model.
As indicated by the model, q1, q2, q3, and q4 represent the central blood compartment, the body/tissue compartment, the injection site, and the urine compartment, respectively. The syringe represents the dose that was given to the injection site compartment. The two red circles indicate the two sampling sources, the serum from the q1 (s1), and the urine from the q4 (s2). […] The calculated PK parameters including AUC, clearance, volume of distribution at steady state (Vss), elimination half-lives (te), and transfer rate constants, are listed in Table 3.

[4] = Hematology of a healthy dog given 1.5 mg/kg on day 1 and 2.0 mg/kg on day 70, sub-mucosa; type: in vivo
Procedure: (§1) Before each dose, the dog was examined by clinical chemistry, hematology, and urinalysis. Additional examinations of clinical chemistry and hematology were performed on days 7, 14, and 42 after the first dose. Additional tests of urinalysis were performed on days 7 and 14 after the first dose. The potential drug-induced toxicities were monitored for 56 days after the second dose. Specifically, clinical chemistry and urinalysis were performed on days 7, 14, 21, and 56, and hematology was performed on days 7, 14, and 56 after the second dose to evaluate the tolerability and toxicity of the formulation.
Hematology examinations were performed at pre- and post-dose for both injections. The injections were given via the sub-mucosa in the mouth.

[5] = Rehydration time of lyophilized HA-Lys-Pt; type: physicochemical
Procedure: 33HA-Lys-Pt (MW of HA: 33 kDa) from batch 33_01015 was used to evaluate the impact of trehalose as an excipient and lyoprotectant. […] The solution was freeze-dried using the following program. Samples were frozen in a −80° C. freezer for 4 hours. The vials were transferred to a freeze dryer and kept at −40° C. for 1.5 hours. The condenser point was set at −70° C. The vacuum setpoint was 100 mTorr. The parameters for primary drying were 30 hours at −35° C. and 10 mTorr. The parameters for secondary drying were 5 hours at 2° C. and 10 mTorr, followed by another 5 hours at 8° C. and 10 mTorr. Once the drying was complete, vials containing lyophilized 33HA-Lys-Pt samples were stored at −20° C. in the dark until rehydration test within 24 hours. During rehydration, 500-μL of water was added to the vial and the sample was gently shaken. The small molecular weight platinum species such as mono-aquated and di-aquated platinum were separated from the reconstituted 33HA-Lys-Pt using a Centricon centrifugal filter unit (10,000 MWCO, 4000 rpm for 10 min at 4° C.) and analyzed by an HPLC assay. The mobile phase was sodium phosphate solution (10-mM, pH 3.0) at a flow rate of 0.25 mL/min on an Alltech® 250 mm×4.6 mm M/M RP8/cation column thermostated at 25° C.
75HA-Lys-Pt (MW of HA: 75 kDa) from batch 75_1205 was used to evaluate the impact of trehalose as an excipient and lyoprotectant. […] The solution was freeze-dried using the following program. Samples were frozen in a −80° C. freezer for 4 hours. The vials were transferred to a freeze dryer and kept at −40° C. for 1.5 hours. The condenser point was set at −70° C. The vacuum setpoint was 100 mTorr. The parameters for primary drying were 30 hours at −35° C. and 10 mTorr. The parameters for secondary drying were 5 hours at 2° C. and 10 mTorr, followed by another 5 hours at 8° C. and 10 mTorr. Once the drying was complete, vials containing lyophilized 75HA-Lys-Pt samples were stored at −20° C. in the dark until rehydration test within 24 hours. During rehydration, 500-μL of water was added to the vial and the sample was gently shaken.
One milliliter of samples were used for all tests. The trehalose percent weights varied from 8-20% wt. The pHs included 4.5, 5, 6, and 7. The solution was freeze-dried using the aforementioned freeze-drying program. Once the drying was complete, vials containing lyophilized 75HA-Lys-Pt samples were stored at −20° C. in the dark until rehydration test within 24 hours. During rehydration, 1-mL of water was added to the vial and the sample was gently shaken. Diaquated platinum species were separated using the aforementioned Centricon units and analyzed using the aforementioned HPLC method.
Other sample freezing methods were also tested. […]

[6] = Clinical chemistry of a healthy dog given 1.5 mg/kg on day 1 and 2.0 mg/kg on day 70, sub-mucosa; type: in vivo
Procedure: as §1
Clinical chemistry examinations were performed at pre- and post-dose for both injections. The injections were given via the sub-mucosa in the mouth.

With “HA-cis-[Pt(NH3)2(N^α-Acetyl-L-Lysine)] [75HA-Lys-Pt]” the te [1] was 11.1 h, the “survival rate relative to the control and cisplatin treated groups” value [2] was “significantly extended” and the “te (β)” value [3] was 3.1 h. For the same substance, the “Differential white blood cell count, % MONO” value ([4]; 2 mg/kg, 56 days after) was 4.5%, the “Differential white blood cell count, % MONO” value ([4]; […], 7 days after) was 3.8% and the “Differential white blood cell count, % MONO” value ([4]; […], 14 days) was 3.8%. The Reticulocyte count ([4]; […], 42 days) was 0.91%, the “Rehydration Time” value ([5]; 2.32 mg/mL, pH 5, trehalose 15% wt) was 24 h and the “Rehydration Time” value ([5]; 2.32 mg/mL, pH 5, trehalose 20% wt) was 24 h. The “Rehydration Time” value ([5]; batch 75_0706, 2.13 mg/mL, pH 5, trehalose 15% wt, Liquid nitrogen) was over 24 h, the “Rehydration Time” value ([5]; batch 75_0706, 2.13 mg/mL, pH 5, trehalose 20% wt, Liquid nitrogen) was over 24 h and the “ALT, fold of the pre-dose value” ([6]; 2 mg/kg, 14-days post-dose) was 2.8 fold. For the same substance, the “AST, fold of the pre-dose value” ([6]; 2 mg/kg, 14-days post-dose) was 2.7 fold, the “A/G Ratio” value ([6]; 2 mg/kg, 7 days after) was 0.86 and the Cl ([6]; 2 mg/kg, 7 days after) was 115 mmol/L. For the same substance, the K ([6]; 2 mg/kg, 7 days after) was 3.8 mmol/L, the Na ([6]; 2 mg/kg, 7 days after) was 148 mmol/L and the “A/G Ratio” value ([6]; 2 mg/kg, 14 days after) was 0.77. The Aspartate aminotransferase ([6]; 2 mg/kg, 14 days after) was 119 U/L, the Cl ([6]; 2 mg/kg, 14 days after) was 122 mmol/L and the Globulin ([6]; 2 mg/kg, 14 days after) was 3.1 g/dL. For the same substance, the K ([6]; 2 mg/kg, 14 days after) was 4.5 mmol/L, the Na ([6]; 2 mg/kg, 14 days after) was 152 mmol/L and the “A/G Ratio” value ([6]; 2 mg/kg, 21 days after) was 0.87. For the same substance, the Cl ([6]; 2 mg/kg, 21 days after) was 113 mmol/L, the Creatine kinase ([6]; 2 mg/kg, 21 days after) was 113 U/L and the Globulin ([6]; 2 mg/kg, 21 days after) was 3.1 g/dL. For the same substance, the K ([6]; 2 mg/kg, 21 days after) was 4.4 mmol/L, the Na ([6]; 2 mg/kg, 21 days after) was 147 mmol/L and the “A/G Ratio” value ([6]; 2 mg/kg, 56 days after) was 0.91. It also gave a Cl ([6]; 2 mg/kg, 56 days after) of 119 mmol/L, a K ([6]; 2 mg/kg, 56 days after) of 4.0 mmol/L and a Na ([6]; 2 mg/kg, 56 days after) of 150 mmol/L. The “A/G Ratio” value ([6]; […], 7 days after) was 0.92, the Cl ([6]; […], 7 days after) was 112 mmol/L and the K ([6]; […], 7 days after) was 4.0 mmol/L. For the same substance, the Na ([6]; […], 7 days after) was 148 mmol/L, the “A/G Ratio” value ([6]; […], 14 days) was 0.86 and the Cl ([6]; […], 14 days) was 119 mmol/L. The K ([6]; […], 14 days) was 5.0 mmol/L, the Na ([6]; […], 14 days) was 149 mmol/L and the “A/G Ratio” value ([6]; […], 42 days) was 1.2.
